Measured values published in patent US7279179B2, “Liposome-entrapped topoisomerase inhibitors” (ALZA Corporation, priority 1988, dated 2007).

System: human colon cancer cell line HT-29 xenograft tumors
Settings: mouse, in vivo

## CC[C@@]1(O)C(=O)OCc2c1cc1n(c2=O)Cc2c-1nc1cc3c(cc1c2CN1CCN(C)CC1)OCCO3 [free MPE-camptothecin, 7-(4-methyl-piperazino-methylene)-10,11-ethylenedioxy-20(S)-camptothecin]
  Partial Remission (tumor volume less than 50% of peak tumor volume): 1 and 1/10

“And” between values parts separate entries of the source, which are not always exact repeats. Equal values may be shown once.
